Reference: PubChem BioAssay (NCI)
Values joined by “and” are separate entries in the source; they are usually repeats but may differ in a detail not shown here. Identical values can stand only once. This is a selection; strong and weak results do not stand in their true shares.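 Step 1: grow cells in 96-well plates. Step 2: add test compound at a single concentration. Step 3: incubate 48 h. Step 4: record percent growth.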 Active and inactive are the calls of the source. The calls were made as follows: active = growth percent below 10; inactive = the rest.

system: MDA-MB-468 breast; assay: NCI-60 one-dose screen, 48 h (100 = growth as untreated, 0 = no growth, -100 = all killed); details: 10 µM

SMILES | growth
O=C(O)c1ccc(N(CCCl)CCCl)cc1 | inactive: 106%
Cn1c(=O)[nH]cc(N(CCCl)CCCl)c1=O | inactive: 92.6%
NC(=O)C1(Nc2ccccc2)CCNCC1 | inactive: 90.6%
O=C(O)CCc1ccc(CSCCCl)cc1 | inactive: 103%
Cc1ccc2oc(=O)cc(CN(CCCl)CCCl)c2c1 | inactive: 93.9%
Cc1ccccc1NC1(C#N)CCN(Cc2ccccc2)CC1 | inactive: 115%
CCC(C)(C)c1ccc(O)c(CN(CCCl)CCCl)c1 | inactive: 104%
O=c1[nH]cc(CN(CCCl)CCCl)c(=O)[nH]1 | inactive: 97.5%
CC(=O)N(c1ccccc1)C1CCNCC1 | inactive: 116%
BrCCN(CCBr)CCCN(CCBr)CCBr | inactive: 96.7%
Cc1ccc(S(=O)(=O)CN(CCBr)CCBr)cc1 | inactive: 103%
N#CC1(Nc2ccccc2)CCN(Cc2ccccc2)CC1 | inactive: 82.3%
Cc1ccc(CN(CCCl)CCCl)cc1C | inactive: 93.2%
O=C1CCN(Cc2ccccc2)CC1 | inactive: 99.7%
O=Cc1ccc(N(CCCl)CCCl)cc1Cl | active: -64.3%
Cc1ccc(NC2(C(N)=O)CCN(Cc3ccccc3)CC2)cc1 | inactive: 104%
O=P1(N(CCCl)CCCl)SCCCS1 | inactive: 103%
O/N=C/c1ccc(N(CCCl)CCCl)cc1 | inactive: 57.6%

SMILES | growth
ClCCN1[C@@H](CCl)CC[C@@H]1c1ccccc1 | inactive: 95.5%
CCCCOc1ccc(N(CCCl)CCCl)cc1 | inactive: 107%
NC(Cc1ccccc1N(CCCl)CCCl)C(=O)O (stereo not given) | inactive: 13%
ClCCN(CCCl)CCc1ccccc1 | inactive: 109%
Cc1ccc(NC2(C#N)CCN(Cc3ccccc3)CC2)cc1 | inactive: 102%
BrCCN(CCBr)c1ccc2c(c1)Cc1ccccc1-2 | active: -33.2%
Oc1ccc(Br)cc1CN(CCCl)CCCl | inactive: 82.7%
NC(Cc1cccc(N(CCCl)CCCl)c1)C(=O)O (stereo not given) | inactive: 77.6% and inactive: 83.2%
N#CC(C#N)=Cc1ccc2c(c1)OCO2 | inactive: 84.1% and inactive: 90.1%
NC(=O)C1(Nc2ccccc2)CCN(Cc2ccccc2)CC1 | inactive: 114%
Cc1ccccc1CN(CCCl)CCCl | inactive: 78%
Fc1cccc(CBr)c1 | inactive: 104%
N#CC(C#N)=Cc1ccc(N(CCCl)CCCl)cc1 | inactive: 30.2%
ClCCN(CCCl)Cc1nc2cc(Cl)c(Cl)cc2[nH]1 | inactive: 50.3%
CCOc1ccc(N(CCCl)CCCl)cc1 | inactive: 47.7%
CC(C)(C)C(=O)CBr | inactive: 94.9%
Cc1cccc(NC2(C#N)CCN(Cc3ccccc3)CC2)c1 | inactive: 115%
